## Apparent affinities of Ab-91 variants for a coronavirus HR2 peptide

Reference: Engelhart et al. 2022, doi:10.1038/s41597-022-01779-4. File: FLAb, binding data.

Target: peptide PDVDLGDISGINAS, taken from heptad repeat 2 (HR2) of SARS-CoV-2 spike.

Parent: Ab-91, a human scFv built as VL, a (GGGGS)3 linker, VH. Only the CDRs of the heavy chain vary.
VL: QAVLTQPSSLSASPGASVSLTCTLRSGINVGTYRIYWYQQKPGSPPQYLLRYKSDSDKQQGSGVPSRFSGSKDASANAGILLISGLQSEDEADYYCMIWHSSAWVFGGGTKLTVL
VH: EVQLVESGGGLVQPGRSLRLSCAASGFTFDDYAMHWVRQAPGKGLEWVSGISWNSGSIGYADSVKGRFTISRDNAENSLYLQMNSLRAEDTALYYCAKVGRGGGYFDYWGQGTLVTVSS

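In library AAYL51, one, two or three CDR residues were substituted; doubles and triples were drawn at random. Affinity was read by AlphaSeq, a pooled yeast mating assay with surface-displayed partners. Pairs that bind mate more often; barcode pairs of the diploids are counted by sequencing. The ratio of observed to expected reads was calibrated, replicate by replicate, on BCL2-family standards whose Kd was known from biolayer interferometry. Each pool was mated in three replicate cultures.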

Variants are written as CDR1, CDR2 and CDR3 of the heavy chain (limits as in the source). Parent: GFTFDDYAMH, GISWNSGSIGYADSVK, VGRGGGYFDY.
Affinities are written as log10 Kd with Kd in nM; a lower number is a better binder.
"n.d." marks a missing value. The strain was present, yet no cells mated with the target were sequenced in that replicate, which points to weak or no binding.

| CDR-H1 | CDR-H2 | CDR-H3 | log10 Kd, replicates | empty controls |
|---|---|---|---|---|
| YFTFDDYACH | GISWNSGSICYADSVK | VGRGGGYFDY | n.d. / n.d. / n.d. | 0/9 |
| GFWEDDYAMH | GISWNSGSIGYADWVK | VGRGGGYFDY | n.d. / n.d. / n.d. | 1/9 (5.17) |
| MQTFDDYAMH | GISWNSGSIGYADSVK | MGRGGGYFDY | 3.55 / n.d. / n.d. | 1/9 (5.39) |
| GFTFSKYAMH | GISWNSGSIGYADSVK | VRRGGGYFDY | 4.96 / 4.07 / n.d. | 1/9 (4.10) |
| GFTFDDYAPH | GISWNSGNIGYADSVK | VGRGGGYFDY | n.d. / 4.84 / 4.51 | 2/9 (4.80) |
| GFVFDDYAMS | GISWNSGSIGYADSVL | VGRGGGYFDY | n.d. / 4.97 / n.d. | 2/9 (4.36) |
| GFTFDDYAMH | GISWNFGSIGYDDSVK | NGRGGGYFDY | n.d. / n.d. / n.d. | 2/9 (4.44) |
| GFTFDDYAMH | GWSWNSGSIGYADSRK | VGRGGCYFDY | n.d. / n.d. / n.d. | 1/9 (4.26) |
| GFTFDKYAMH | GISWNSGSIGYADDVK | VGRGGGWFDY | 1.79 / 1.63 / 1.19 | 3/9 (4.58) |
| SFTFDDYAMH | GISWNSGSIGYYDSVK | VGRGGGYRDY | n.d. / n.d. / n.d. | 0/9 |
| GFMFDDNAMH | GISWNSGNIGYADSVK | VGRGGGYFDY | 4.71 / 5.76 / 5.35 | 8/9 (4.77) |
| GFTFDDYAMH | GISWNSGSIGYADSVK | VGRGAGYRDY | n.d. / n.d. / n.d. | 1/9 (2.75) |
| GFTIDVYAMH | GISWNSGSIGYADSVK | VGRGGGYFDY | 3.89 / n.d. / n.d. | 2/9 (3.79) |
| GFTFDDYAMH | GISWNSGSIGYADSSK | VGRGGWMFDY | 4.68 / n.d. / n.d. | 3/9 (4.61) |
| GFTFYDYAMH | GISWNSGSIGYADSVK | PGWGGGYFDY | 4.71 / 5.16 / 5.30 | 4/9 (5.29) |
| GFTFDDYAMH | GISWMSGSIGYADSVK | VHRGGGYFSY | n.d. / n.d. / n.d. | 2/9 (4.64) |
| GVTKDDYAMH | GISWNSGSIGYADSVK | VIRGGGYFDY | n.d. / n.d. / n.d. | 1/9 (3.59) |
| FFTFDDYAMH | GISWNSGSIGYADEVK | VGRGGGYFEY | n.d. / n.d. / n.d. | 3/9 (5.20) |
| GFTFDDYAMH | GISWNSGSIGYADCVK | VGAGGWYFDY | 1.74 / 2.05 / 1.50 | 3/9 (3.87) |
| GQPFDDYAMH | GISWNRGSIGYADSVK | VGRGGGYFDY | 3.94 / n.d. / n.d. | 2/9 (3.80) |
| GDTFDDYAFH | GISWNSGSIGYADSPK | VGRGGGYFDY | n.d. / n.d. / 4.48 | 0/9 |
| GMTGDDYAMH | GISWNSYSIGYADSVK | VGRGGGYFDY | 4.29 / n.d. / n.d. | 1/9 (5.03) |
| GFTFDDYAMH | GISWNSGSIGYCDSVK | VGSGAGYFDY | n.d. / n.d. / n.d. | 0/9 |
| GFTFTDYYMH | GIGWNSGSIGYADSVK | VGRGGGYFDY | n.d. / n.d. / n.d. | 0/9 |
| GFTFDDYAMH | GISWNSGSEGYADSEK | VTRGGGYFDY | 5.26 / n.d. / n.d. | 4/9 (4.85) |
| GFMFDDYAMH | GISWNSGSIGYDDSVK | VGRGGGYRDY | 1.82 / 1.71 / 1.41 | 0/9 |
| DFTFDDYAMH | GISWNSGSIGYADSVK | VGAGGGYFDY | 4.75 / n.d. / n.d. | 0/9 |
| GFTFDDYAMH | GISWPSGSIGYADAVK | VMRGGGYFDY | n.d. / n.d. / n.d. | 0/9 |
| GFFFDDYAMH | GISWNSGSIGYADSVK | PGRGGGYFDY | n.d. / n.d. / n.d. | 0/9 |
| GFTFWDYAMH | GISWNSGSIGYADSVK | YGRGGGYFDY | n.d. / n.d. / 4.16 | 1/9 (2.64) |
| GRYFDDYAMH | GISWKSGSIGYADSVK | VGRGGGYFDY | n.d. / n.d. / n.d. | 0/9 |
| GFTFDDYAMH | GISWNSGSIGYADQVK | VPRGGGYFHY | n.d. / n.d. / n.d. | 3/9 (4.06) |
| GFTFDDYAMH | GISWNSHSIGYADSVK | VGRGGGQFDY | 6.42 / 6.57 / n.d. | 3/9 (4.72) |
| PFTFDDYAWH | GISWNSGSIGYADSVK | VGRGGGYTDY | 6.05 / n.d. / n.d. | 3/9 (4.40) |
| GFCFDDYAMH | GDSWNSGSIGYPDSVK | VGRGGGYFDY | n.d. / 5.28 / 2.79 | 0/9 |
| GFTFRDYAMH | GISWNSGSIGYADQVK | VGRGGGYFDY | n.d. / 4.54 / 3.86 | 4/9 (4.23) |
| GFTFDMYAMH | GISWNSGSIGYADSVK | FGRGYGYFDY | 2.51 / 2.59 / 2.80 | 4/9 (5.14) |
| GFTFDDYAGH | GILWNSGSIGYADSVK | VGRGGGYFDY | n.d. / n.d. / n.d. | 2/9 (3.60) |
| GFTFDDQAMH | GISWNSGSIGYADSVK | VGRHGGYFDY | n.d. / n.d. / n.d. | 2/9 (3.89) |
| GFTFDDYAMH | GISYNSGSIGYADSVK | VGRGGGYAQY | 4.84 / n.d. / n.d. | 3/9 (4.52) |
| GFTFDDYAMH | GHSWNSGSIGYADSVK | TGRGGGYFDY | n.d. / n.d. / 2.62 | 0/9 |
| GFTFDDYAMH | GISWNSGSWGYADSVK | VGRGGGYFDY | 2.57 / 3.27 / 2.31 | 2/9 (4.25) |
| GGTFSDYAMH | GISWNSGSIGYADSVK | VGRGGGYFDY | 0.70 / 0.68 / -0.03 | 2/9 (4.53) |
| GFTFDDYAMH | GISWNSGSIGYANSEK | VGRDGGYFDY | n.d. / 4.58 / n.d. | 5/9 (4.59) |
| GFTFDDYAMH | DISWNSGSIGYAQSEK | VGRGGGYFDY | 3.83 / n.d. / n.d. | 2/9 (5.12) |
| GFTVDLYAMH | GISWNSGRIGYADSVK | VGRGGGYFDY | 2.47 / n.d. / n.d. | 1/9 (3.68) |
| GFTFDDYAMH | GISWNSGSIGPADSVK | VGWGGGYFDP | 5.38 / 4.80 / n.d. | 3/9 (5.07) |
| GFTFDDYAMH | GIDWNSGIIGYADSVK | VGRGGGYFPY | 5.38 / n.d. / n.d. | 3/9 (4.09) |
| GETFIDYAMH | GISWNSASIGYADSVK | VGRGGGYFDY | n.d. / n.d. / n.d. | 0/9 |
| GMTFDDYMMH | GISWNSGSIGIADSVK | VGRGGGYFDY | n.d. / n.d. / n.d. | 0/9 |

Three control strains display no target. For library AAYL51, 21% of the pairings with them gave a signal, with a median of 4.54 and one signal in twenty below 3.26, so weak values seen in few replicates may be background. For each scFv, signals with the empty controls are counted beside the result, with their mean in brackets.